These are literature values, as cited in patent US10988812B2, “Fusion genes associated with progressive prostate cancer” (UNIVERSITY OF PITTSBURGH - OF THE COMMONWEALTH SYSTEM OF …, priority 2013, dated 2021).

The test system of this series is non-small cell lung cancer positive for EML4-ALK. The following applies: in most patients; cited from earlier work.

On to `C[C@@H](Oc1cc(-c2cnn(C3CCNCC3)c2)cnc1N)c1c(Cl)ccc(F)c1Cl` [Crisotinib], for which the “shrinkage of tumor mass” value is “at least 30%”.
